Laboratory results as given in ChEMBL document CHEMBL1138911 (Bioorg Med Chem Lett, 2006).

Protein sequences, listed by entry. Tags and fused reporters are not part of them. Lines headed by an entry give the natural chain unless they say otherwise; changes in a name come on top.
UniProt P41145: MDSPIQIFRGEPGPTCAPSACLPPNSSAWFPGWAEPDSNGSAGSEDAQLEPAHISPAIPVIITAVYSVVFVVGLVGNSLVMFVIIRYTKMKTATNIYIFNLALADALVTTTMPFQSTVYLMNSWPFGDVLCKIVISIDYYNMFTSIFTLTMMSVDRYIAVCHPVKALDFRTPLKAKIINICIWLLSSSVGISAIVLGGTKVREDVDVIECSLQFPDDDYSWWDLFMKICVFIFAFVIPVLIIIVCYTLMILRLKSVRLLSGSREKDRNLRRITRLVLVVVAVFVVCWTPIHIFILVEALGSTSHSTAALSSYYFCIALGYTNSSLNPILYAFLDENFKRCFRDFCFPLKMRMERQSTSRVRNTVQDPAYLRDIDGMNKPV

Experiments:
Brain = test: Stimulation of [35S]GTPgammaS binding in human brain cortical membrane relative to control
[1] = target: Kappa-type opioid receptor (Homo sapiens) (UniProt P41145); test: Ratio for stimulation of [35S]GTP-gamma-S binding to kappa opioid receptor in human brain cortical membrane in absence to presence of norBNI

Structure (SMILES) | Activity (Brain) [%] | Ratio [1]
CO[C@]12CC[C@@]3(C[C@@H]1[C@@](C)(O)C1CCC1)C1Cc4ccc(O)c5c4[C@@]3(CCN1CC1CC1)[C@H]2O5 | 7.2 | –
CN(C(=O)Cc1ccccc1)[C@H]1CC[C@@]2(CCCO2)C[C@@H]1N1CCCC1 | 13.4 | 15.9
